Measurements from PMC9037210, “Novel 3-(6-methylpyridin-2-yl)coumarin-based chalcones as selective inhibitors of cancer-related carbonic anhydrases IX and XII endowed with anti-proliferative activity” (Journal of Enzyme Inhibition and Medicinal Chemistry, 2022).

What was measured:
[1] = molecular target: T1, hCA IX (Homo sapiens, UniProt Q16790); test: stopped-flow CO2 hydrase assay, hCA IX; format: biochemical
T1 construct: made in house
Procedure: (§1) The newly synthesised MPCs (3 and 5a–o) were assessed for their CA inhibition activity employing the stopped-flow CO2 hydrase assay[29] for constitutional hCA (I/II) isoforms and cancer-linked hCA (IX/XII) isoforms.
(§2) The CA inhibition activity for the herein reported MPC derivatives was evaluated against the hCA isoforms I, II, IX, and XII using stopped-flow CO2 hydrase test[7]^,[33–36] (see the Supplementary Material).
(§3) Carbonic anhydrase inhibition assay
(§4) The carbonic anhydrase catalyzed CO2 hydration actions for all coumarin-based […]
(§5) Photophysics stopped-flow. The enzymes are recombinant proteins prepared in our lab. Phenol red (at a concentration of 0.2 mM) has been used as indicator, working at […]
(§6) mM Na2SO4 (for maintaining constant the ionic strength), following the initial rates of the CA-catalyzed CO2 hydration reaction for a period of 10-100 s. The CO2 concentrations ranged from 1.7 to 17 mM for the determination of the kinetic parameters and inhibition constants. For each inhibitor at least six traces of the initial 5-10% of the reaction have been used for determining the initial velocity. The uncatalyzed rates were determined in the same manner and subtracted from the total observed rates. Stock solutions of inhibitor (0.1 mM) were prepared in distilled-deionized water and dilutions up to 0.01 nM were done thereafter with the assay buffer. […]

[2] = molecular target: T2, hCA XII (Homo sapiens, UniProt O43570); test: stopped-flow CO2 hydrase assay, hCA XII; format: biochemical; conditions: ratio of KI for hCA I and II relative to hCA XII
T2 construct: made in house
Procedure: as §1, §2, §3, §4, §5, §6

- Selectivity index (SI) (KI off-target CA/KI target CA) Towards hCA IX [1]: >90.91
- Selectivity index (SI) (KI off-target CA/KI target CA) Towards hCA XII [2]: >37.04
Structure (SMILES): Cc1nc(-c2cc3ccccc3oc2=O)ccc1C(=O)/C=C/c1cccs1 [Compound 5m, 3-(6-Methyl-5-[(2E)-3-(thiophen-2-yl)prop-2-enoyl]pyridin-2-yl)-2H-chromen-2-one]
